As a reminder, the EC50 is the midpoint of the concentration-response curve.

Amino acid sequences for entries named in this document (tags omitted). Residues count along the entry.
UniProt P01375, 77-233 limits assumed: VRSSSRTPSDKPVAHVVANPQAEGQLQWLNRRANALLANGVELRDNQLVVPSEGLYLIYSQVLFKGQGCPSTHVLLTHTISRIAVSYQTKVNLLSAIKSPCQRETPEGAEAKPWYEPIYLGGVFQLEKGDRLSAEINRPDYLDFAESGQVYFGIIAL

The test deals with T1, human TNF-α (human, UniProt P01375 77-233).
T1 construct: also called TNF alpha
Briefly: plate ELISA, cytokine coated, antibody titrated. (An ELISA detects its analyte on a solid surface through an enzyme-linked reagent.)

B1: anti-TNF-α infliximab antibody (antibody, V domains shown)
VH: EVKLEESGGGLVQPGGSMKLSCVASGFIFSNHWMNWVRQSPEKGLEWVAEIRSKSINSATHYAESVKGRFTISRDDSKSAVYLQMTDLRTEDTGVYYCSRNYYGSTYDYWGQGTTLTVSS
VL: DILLTQSPAILSVSPGERVSFSCRASQFVGSSIHWYQQRTNGSPRLLIKYASESMSGIPSRFSGSGSGTDFTLSINTVESEDIADYYCQQSHSWPFTFGSGTNLEVKR
The molecule B1 gave an EC50 of 0.04 ng/mL.
